The target of data set [1] is T1, human D2R/β-arrestin (Homo sapiens (Human), UniProt P14416). Conditions: read-out: β-arrestin Antagonist.
Data set [2] addresses T1, human D2R/β-arrestin. The data set is described as follows: β-Arrestin agonist assay (PathHunter). The format is cell-based. Conditions: read-out: β-arrestin Agonist; CHO-K1 cell line expressing human D2R/β-arrestin.
The target of data set [3] is T1, human D2R/β-arrestin. The data set is described as follows: Gi/cAMP agonist assay (Lance Ultra cAMP, Forskolin). The format is cell-based. Conditions: read-out: cAMP Agonist; CHO-K1 cell line expressing human D2R/β-arrestin.
Data set [4] deals with T1, human D2R/β-arrestin. Conditions: read-out: cAMP Antagonist.
Data set [5] can be described thus: Pharmacokinetic studies on mice, plasma and brain. Conditions: brain, i.p., 10 mg/kg single dose, male C57BL/6 mice; CL (L/hr/kg).

Sequences of proteins named here, by UniProt entry; tags and fusion partners are left off. A change or cut given only in a name is not applied to a line headed by its entry.
UniProt P14416, whole entry: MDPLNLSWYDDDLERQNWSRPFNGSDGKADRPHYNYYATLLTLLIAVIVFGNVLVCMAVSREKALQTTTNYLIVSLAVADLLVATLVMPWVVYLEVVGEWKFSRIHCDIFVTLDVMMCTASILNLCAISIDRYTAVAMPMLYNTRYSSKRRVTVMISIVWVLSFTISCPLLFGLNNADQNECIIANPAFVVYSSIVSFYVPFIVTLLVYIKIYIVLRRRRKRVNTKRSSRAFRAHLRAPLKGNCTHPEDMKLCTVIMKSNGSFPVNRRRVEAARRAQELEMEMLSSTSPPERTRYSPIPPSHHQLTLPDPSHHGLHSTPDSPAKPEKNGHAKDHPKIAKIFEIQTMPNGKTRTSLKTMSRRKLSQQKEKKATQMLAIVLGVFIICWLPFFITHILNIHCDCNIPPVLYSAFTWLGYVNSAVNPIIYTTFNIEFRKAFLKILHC

Where two headings read alike, the source gives them in different places.

Turning to `O=C(NC(c1ccc(F)cc1)c1ccccn1)C1CCN(CCOc2ccccc2)CC1` (single isomer, unassigned) [25a], the IC50 at human D2R/β-arrestin [1] was 1 to 10 µM; at human D2R/β-arrestin [4] it was greater than 30 µM. The EC50 on human D2R/β-arrestin [2] was greater than 30 µM; at human D2R/β-arrestin [3], 0.1 to 1 µM.

In the case of `O=C(NC(c1ccc(F)cc1)c1ccccn1)C1CCN(CCOc2ccccc2)CC1` (single isomer, unassigned) [25b], the IC50 on human D2R/β-arrestin [1] and on human D2R/β-arrestin [4] was 1 to 10 µM throughout. Moreover, the EC50 at human D2R/β-arrestin [2] and on human D2R/β-arrestin [3] was greater than 30 µM each time.

In data set [5], `COc1cccc(C(NC(=O)C2CCN(CCOc3ccccc3)CC2)c2ccccn2)c1` (single isomer, unassigned) showed a CL of 124 mL/min/kg.

Values taken from US10752588B2 (The Broad Institute, Inc., priority 2014, dated 2020).
